Test results as given in PubChem BioAssay (NCI).
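Interpolation was linear, between the two tested concentrations surrounding the appropriate level; five concentrations were tested over 48 hours in 96-well plates. TGI: total growth inhibition.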

Tests used:
Assay in all cases: NCI-60 cell line screen, 48 h
[1] = tested on: MOLT-4 leukemia
[2] = tested on: NCI-H322M lung
[3] = tested on: HT29 colon
[4] = tested on: HCC-2998 colon
[5] = tested on: MDA-MB-435
[6] = tested on: TK-10 renal
[7] = tested on: U251 CNS
[8] = tested on: SNB-75 CNS
[9] = tested on: UACC-257 melanoma
[10] = tested on: HS 578T breast
[11] = tested on: SF-295 CNS
[12] = tested on: NCI-H522 lung
[13] = tested on: SK-MEL-5 melanoma
[14] = tested on: SN12C renal
[15] = tested on: SF-268 CNS
[16] = tested on: MCF7 breast
[17] = tested on: BT-549 breast
[18] = tested on: HOP-62 NSCLC
[19] = tested on: OVCAR-8 ovarian
[20] = tested on: OVCAR-3 ovarian
[21] = tested on: EKVX NSCLC
[22] = tested on: ACHN renal
[23] = tested on: NCI-H23 lung
[24] = tested on: OVCAR-4 ovarian
[25] = tested on: CAKI-1 renal
[26] = tested on: PC-3 prostate
[27] = tested on: MDA-MB-231 breast
[28] = tested on: RXF 393 renal
[29] = tested on: CCRF-CEM leukemia
[30] = tested on: UO-31 renal
[31] = tested on: RPMI-8226 leukemia
[32] = tested on: SNB-19 CNS
[33] = tested on: 786-0 renal
[34] = tested on: NCI-H226 lung
[35] = tested on: NCI/ADR-RES ovarian
[36] = tested on: MDA-N
[37] = tested on: DU-145 prostate
[38] = tested on: COLO 205 colon
[39] = tested on: OVCAR-5 ovarian
[40] = tested on: A549 NSCLC
[41] = tested on: LOX IMVI melanoma
[42] = tested on: M14 melanoma
[43] = tested on: HCT-116 colon
[44] = tested on: MALME-3M melanoma
[45] = tested on: UACC-62 melanoma
[46] = tested on: HL-60(TB) leukemia
[47] = tested on: IGROV1 ovarian
[48] = tested on: K-562 leukemia
[49] = tested on: KM12 colon
[50] = tested on: NCI-H460 lung
[51] = tested on: A498 renal
[52] = tested on: SF-539 CNS
[53] = tested on: SW-620 colon
[54] = tested on: SK-MEL-2 melanoma
[55] = tested on: HOP-92 NSCLC
[56] = tested on: SR leukemia
[57] = tested on: HCT-15 colon
[58] = tested on: T-47D breast
[59] = tested on: SK-OV-3 ovarian

Measured: TGI

CN(C(=O)COc1cc(Cl)c(Cl)cc1Cl)[C@@H]1CCCC[C@@H]1N1CCCC1
63.6 µM: [11]
31.2 µM: [13]
74.5 µM: [12]
55.2 µM: [9]
62.3 µM: [45]
56.5 µM: [4]
45 µM: [54]
92 µM: [16]
50 µM: [38]
39.2 µM: [51]
31.9 µM: [42]
> 100 µM: all other assays above
